# Only a part is listed here, and it is no random draw. The source made the active and inactive calls. Cut-off read from the data, not from the text of the source: active = inhibition above about 24%; inactive = the rest.
# Target: Major prion protein (Homo sapiens) (UniProt P04156)
# Test: inhibitors of human cell surface prion protein PrPC, primary screen, cell-based, TR-FRET (AID 720596); note: 0% = median of the test wells and 100% = reference compound wells
# Details: TR-FRET read-out, at 13.8 µM, active compounds read high
row,Structure (SMILES),inhibition
1,CCC(=O)N(c1ccccc1)C1(COC)CCN(CCc2cccs2)CC1,inactive: -7.41%
2,CCC(=O)N(c1ccccc1)C1(COC)CCN(CCn2nnn(CC)c2=O)CC1,inactive: 0.83%
